# Boiling point values, as collected for the OPERA models

Source: data files of OPERA 2.9 (Mansouri et al.), github.com/kmansouri/OPERA.

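The numbers are reported measurements, compiled and curated for the OPERA QSAR suite. The files give a single number for a compound and property, which may rest on several reports. How each value was measured is not recorded, so precision varies. The measured form (salt, isomer or mixture) is not always the one drawn. Some upstream entries may be estimates or bounds without being marked so.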

The boiling point refers to atmospheric pressure (760 mmHg), by the definition of the set. "–" marks a cell with nothing listed here.

structure (SMILES)	name	boiling point (°C)
CC(=O)CCC1C(C)=CCCC1(C)C (stereo not given)	4-(2,6,6-Trimethyl-2-cyclohexen-1-yl)-2-butanone	277
O=C(O)/C=C\C(=O)OCCOCCOCCOC(=O)/C=C\C(=O)O	–	235
C=C(C)CC1CCCCCCCCCCC1=O (stereo not given)	2-(2-Methylprop-2-en-1-yl)cyclododecan-1-one	320.1
CCCC(O)CC[C@@H]1[C@@H](C)CCCC1(C)C (stereo in doubt)	–	295.1
COCCOCCOCCNC(C)(C)C	–	257.8
CC(C)=CCC(C)CC(C)CO (stereo not given)	2,4,7-Trimethyloct-6-en-1-ol	241
CCCC1CC=C(C)C(=O)C1 (stereo not given)	2-Methyl-5-propylcyclohex-2-en-1-one	231.9
CC(C)CCOC(=S)S	Carbonodithioic acid, O-(3-methylbutyl) ester	90.5
O=C(O)C(F)(F)C(F)(F)C(F)(F)C(F)(F)C(F)(C(F)(F)F)C(F)(F)F	Perfluoro-6-(trifluoromethyl)heptanoic acid	189
O=[N+]([O-])c1ccc(O)cc1C(F)(F)F	3-Trifluoromethyl-4-nitrophenol	240.8
O=C(OCC(F)(F)C(F)(F)C(F)(F)F)C(F)(F)C(F)(F)C(F)(F)F	2,2,3,3,4,4,4-Heptafluorobutyl heptafluorobutanoate	124
CCOC(=O)C(C)=CC(=O)OC	1,4-Diethyl 2-methyl-2-butenedioate	227.8
CCCCCCCCCC(C)/C=C(/C(C)=O)C(=O)OCC (stereo partly drawn)	–	306
CC(C)CC(=O)O[C@H]1C[C@H]2CC[C@]1(C)C2(C)C	d-Bornyl isovalerate	258
CC(C)P(=O)(CCCCCCCCCCCCP(=O)(C(C)C)C(C)C)C(C)C	–	245.6
Nc1ccccc1-c1cc(F)c(F)c(F)c1	3',4',5'-Trifluoro[1,1'-biphenyl]-2-amine	287.1
CCN(CC)C(=O)CC(C)=O	N,N-diethyl-3-oxobutyramide	163.2
C=CC1COC(CC(C)C)O1 (stereo not given)	2-Isobutyl-4-vinyl-1,3-dioxolane	176.8
C[N+](C)(C)[O-]	N,N-Dimethyl-methanamine-N-oxide	158
CC1=CC(C)CC(C)C1 (stereo not given)	1,3,5-Trimethylcyclohex-1-ene	141
C=CCCC(=O)Oc1ccccc1	Phenyl pent-4-enoate	243.8
N#CC(F)(F)C(F)(F)C(F)(F)C(F)(F)C(F)(F)F	Undecafluorohexanenitrile	53
FC(F)(F)OC1(Cl)OC(F)(F)OC1(F)Cl (stereo not given)	–	76
N#CSCSc1nc2ccccc2s1	2-(Thiocyanomethylthio)benzothiazole	191
COC(=O)/C=C(\C)C=O	Methyl (E)-3-methyl-4-oxobut-2-enoate	181.2
CC(C)=CCC/C(C)=C/CC[C@H](C)CC=O	(3S,6E)-3,7,11-Trimethyl-6,10-dodecadienal	286.9
Cc1cc(CC(C)C)ccc1C=O	4-isobutyl-2-methylbenzaldehyde	262
CCCCCC(C)(C)OC	2-Methoxy-2-methylheptane	160.5
CCC(O)CN(CC(O)CC)CC(O)CC (stereo not given)	1,1',1''-Nitrilotri(butan-2-ol)	310
CC(C)(C)c1cc2c(c(C(C)(C)C)c1)OP(=O)(O)Oc1c(cc(C(C)(C)C)cc1C(C)(C)C)C2	–	340
CCOC(=O)CCC1(C)OCC(CO)O1 (stereo not given)	–	285.8
C=CCCC(=O)CC1CC2CCC1C2 (stereo not given)	–	268.2
CCCC(C)=NO[Si](ON=C(C)CCC)(ON=C(C)CCC)c1ccccc1	–	237.9
CCCCCCCCCCCCCC[N+](C)(C)CC(=O)[O-]	–	543
O=S(=O)(F)OC(F)(F)C(F)(F)Cl	2-Chloro-1,1,2,2-tetrafluoroethyl sulfurofluoridate	54
Nc1cc(S(=O)(=O)O)ccc1C(=O)O	Benzoic acid, 2-amino-4-sulfo-	360
CCC(=O)/C=C/C1=C(C)CCCC1(C)C	(E)-1-(2,6,6-Trimethyl-1-cyclohexen-1-yl)pent-1-en-3-one	281
COC(=O)CCCCCCCCCCCCCCCCC(=O)OC	Dimethyl octadecanedioate	391
CC(C)CC(=O)N1CCCC(CO)C1 (stereo not given)	1-[3-(Hydroxymethyl)-1-piperidinyl]-3-methyl-1-butanone	326
CCCCCO[C@@H]1O[C@@H](C)[C@H](O)[C@@H](O)[C@H]1O	Pentyl 6-deoxy-alpha-L-mannopyranoside	216.8
CC/C(=C\CC1CC=C(C)C1(C)C)CO (stereo partly drawn)	–	278.7
CCCCOCCOC(=O)CCCCC(=O)OCCOCCCC	Bis(2-butoxyethyl) adipate	322
CCCCCCC(=O)CO	1-hydroxy-2-octanone	189.7

Excerpt, the opening 5 entries:

structure (SMILES)	name	boiling point (°C)
CC(=O)CCC1C(C)=CCCC1(C)C (stereo not given)	4-(2,6,6-Trimethyl-2-cyclohexen-1-yl)-2-butanone	277
O=C(O)/C=C\C(=O)OCCOCCOCCOC(=O)/C=C\C(=O)O	–	235
C=C(C)CC1CCCCCCCCCCC1=O (stereo not given)	2-(2-Methylprop-2-en-1-yl)cyclododecan-1-one	320.1
CCCC(O)CC[C@@H]1[C@@H](C)CCCC1(C)C (stereo in doubt)	–	295.1
COCCOCCOCCNC(C)(C)C	–	257.8